Test results: PMC11110763, “Carltonine-derived compounds for targeted butyrylcholinesterase inhibition” (RSC Medicinal Chemistry, 2024)

Conditions: PAMPA, pH 7.4

## COc1ccc2c3c1O[C@H]1C[C@@H](O)C=C[C@@]31CCN(C)C2 [Galantamine, reference compound]
  Pe ± SEM: 6.7 ± 0.7 ×10^−6 cm s^−1
